Assay results reported in PubChem BioAssay AID1007 (NMMLSC, 2008).
The entries are a selection whose mix differs from that of the whole data set. Active and inactive are the calls of the source. No stated cut-off is given here; in the data, active means inhibition above about 40%.

Protein sequences, listed by entry. Tags and fused reporters are not part of them.
UniProt Q07817, whole entry: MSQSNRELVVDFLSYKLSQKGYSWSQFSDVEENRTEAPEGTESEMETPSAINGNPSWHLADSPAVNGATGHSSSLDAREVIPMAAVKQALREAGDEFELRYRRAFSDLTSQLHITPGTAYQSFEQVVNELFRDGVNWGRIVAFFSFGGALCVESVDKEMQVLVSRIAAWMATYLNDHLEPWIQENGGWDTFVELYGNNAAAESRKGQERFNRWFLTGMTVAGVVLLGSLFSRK

What follows are molecules tested against Bcl-2-like protein 1 (Homo sapiens) (UniProt Q07817) (assay: Bcl-XL/Bim peptide interaction blockers – biochemical, multiplexed, bead flow cytometry, human Bcl-XL, primary screen (AID 1007)). Conditions: Bim peptide-Bcl-XL binding, fluorescence, at 10 µM, active compounds read high.

Structure (SMILES) | inhibition
CC(C)(C)OC(=O)N1CCC(Nc2ccccc2)CC1 | inactive: -1%
CCOc1ncccc1C(=O)NCC1(N2CCOCC2)CCCCC1 | inactive: 1%
COc1cc(OC)cc(C(=O)NCC2(N3CCOCC3)CCCCC2)c1 | inactive: 1%
CCC(CO)(C(=O)OC1CN2CCC1CC2)c1ccccc1 (stereo not given) | inactive: -4%
Fc1ccccc1NC1CCN(Cc2ccccc2)CC1 | inactive: -4%
CN(C)c1ccc(C(=O)NCC2(N3CCCCC3)CCCCC2)cc1 | inactive: 1%
CCN1CCC(Nc2cccc(F)c2)CC1 | inactive: -3%
N#Cc1ccc(C(=O)NCC2(N3CCCCC3)CCCCC2)cc1 | inactive: -3%
c1ccc(CN2CCC(Nc3ccccc3)CC2)cc1 | inactive: -7%
COc1ccc(C(=O)NCC2(N3CCOCC3)CCCCC2)cc1OC | inactive: -1%
O=C(OC1CN2CCC1CC2)C1c2ccccc2C=Cc2ccccc21 (stereo not given) | inactive: 0%
N/C(=N\O)c1c(N)no[n+]1[O-] | inactive: -1%
CC(C)c1ccc(NC2CCN(C(=O)OC(C)(C)C)CC2)cc1 | inactive: 0%
COc1ccc(CN(CCCl)CCCl)cc1Cl | inactive: -4%
CN(C)c1cccc(C(=O)NCC2(N3CCCCC3)CCCCC2)c1 | inactive: -4%
N#CC1(Nc2ccccc2)CCN(CCc2ccccc2)CC1 | inactive: -1%
O=C(NCC1(N2CCCCC2)CCCCC1)c1cccc([N+](=O)[O-])c1 | inactive: -2%
O=C(NCC1(N2CCOCC2)CCCCC1)c1cc(=O)[nH]c2ccccc12 | inactive: -8%
CN1CCN(CCOC(=O)C(O)(c2ccccc2)c2ccccc2)CC1 | inactive: -6%
COc1ccc(NC2CCN(C(=O)OC(C)(C)C)CC2)cc1 | inactive: -2%
COc1ccc(NC2CCN(CCc3ccccc3)CC2)c(OC)c1 | inactive: -4%
COc1ccc(C(=O)NCC2(N3CCCCC3)CCCCC2)c(OC)c1OC | inactive: 2%
O=C(OC1CN2CCC1CC2)C1c2ccccc2Oc2ccccc21 (stereo not given) | inactive: -2%
CCOC(=O)N1CCC(Nc2ccc(OC)cc2)CC1 | inactive: -3%
O=C(NCC1(N2CCOCC2)CCCCC1)c1cc2ccccc2o1 | inactive: 5%
